Values quoted from earlier work in PMC8437142 (The Journal of physiology, 2021).
Counter-ions that a name gives are not always drawn.

How the values were obtained:
[1] = ref Hutchinson et al., 2008a; cited from earlier work
mu opioid receptors = settings: at the dose studied (4 mg/kg s.c.); ref Hutchinson et al., 2008a; cited from earlier work

CN1CC[C@]23c4c5ccc(O)c4O[C@H]2[C@@H](O)C=C[C@H]3[C@H]1C5 [Morphine, Morphine sulfate]
time to reach significant blood concentrations [1]: ~ 15 minutes | duration of mu opioid receptor agonism (mu opioid receptors): ~ 2 hours
